Assay results taken from article PMC6364133, “Selectivity of Dietary Phenolics for Inhibition of Human Monoamine Oxidases A and B” (BioMed Research International, 2019).
Where two headings read alike, the source gives them in different places.

Protein sequences, listed by entry. Tags and fused reporters are not part of them.
UniProt P21397, whole entry: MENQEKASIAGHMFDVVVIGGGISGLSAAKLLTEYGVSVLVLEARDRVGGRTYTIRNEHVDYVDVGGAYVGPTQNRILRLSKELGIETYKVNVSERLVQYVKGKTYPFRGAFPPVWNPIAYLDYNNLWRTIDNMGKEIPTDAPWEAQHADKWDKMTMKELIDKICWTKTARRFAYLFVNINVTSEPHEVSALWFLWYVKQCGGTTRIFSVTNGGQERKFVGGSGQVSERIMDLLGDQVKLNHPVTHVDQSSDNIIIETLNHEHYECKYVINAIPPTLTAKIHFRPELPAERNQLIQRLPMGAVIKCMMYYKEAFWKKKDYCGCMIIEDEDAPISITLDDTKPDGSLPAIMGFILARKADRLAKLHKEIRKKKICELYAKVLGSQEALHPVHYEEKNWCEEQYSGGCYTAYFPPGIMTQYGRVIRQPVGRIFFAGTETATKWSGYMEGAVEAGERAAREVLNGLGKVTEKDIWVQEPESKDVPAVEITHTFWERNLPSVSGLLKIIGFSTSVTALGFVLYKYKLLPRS
UniProt P27338, whole entry: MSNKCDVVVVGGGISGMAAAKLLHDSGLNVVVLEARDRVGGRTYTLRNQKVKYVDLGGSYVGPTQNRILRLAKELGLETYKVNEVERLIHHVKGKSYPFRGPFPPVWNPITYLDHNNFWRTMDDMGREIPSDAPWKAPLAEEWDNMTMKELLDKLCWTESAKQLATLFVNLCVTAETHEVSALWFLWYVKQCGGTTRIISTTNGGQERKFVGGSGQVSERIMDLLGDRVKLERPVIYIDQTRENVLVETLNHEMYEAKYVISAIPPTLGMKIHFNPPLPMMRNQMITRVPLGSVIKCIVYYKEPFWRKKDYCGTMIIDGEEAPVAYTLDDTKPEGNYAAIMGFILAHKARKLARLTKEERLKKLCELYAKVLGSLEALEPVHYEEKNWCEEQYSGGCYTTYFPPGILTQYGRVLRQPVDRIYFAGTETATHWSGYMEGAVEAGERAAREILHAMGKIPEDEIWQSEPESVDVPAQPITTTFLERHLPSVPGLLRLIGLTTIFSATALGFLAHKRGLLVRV

Key:
[1] = gavage, cited from earlier work
[2] = set-up: method as in PMID 23627552; conditions: gavage bolus, cited from earlier work
MAO-A = MAO-A (Homo sapiens, UniProt P21397); assay: MAO-A inhibition, kynuramine to 4-hydroxyquinoline, HPLC-fluorescence; conditions: read-out: MAO-A IC50; kynuramine 10 µM, MAO-A 0.01 mg/mL, 15 min
MAO-B = MAO-B (Homo sapiens, UniProt P27338); assay: MAO-B inhibition, kynuramine to 4-hydroxyquinoline, HPLC-fluorescence; conditions: read-out: MAO-B IC50; kynuramine 10 µM, MAO-B 0.01 mg/mL, 15 min

Question: For isoeugenol, which absolute bioavailability ([1]; female rats) is on record?
Answer: The absolute bioavailability was 19%.

Question: What about the absolute bioavailability ([1]; male rats) of the same substance?
Answer: Its absolute bioavailability is 10%.

Question: What about the bioavailability ([2]; female mice) of the same substance?
Answer: Its bioavailability is 31%.

Question: What about the bioavailability ([2]; male mice) of the same substance?
Answer: Its bioavailability is 28%.

Question: What about the IC50 (MAO-A) of the same substance?
Answer: Its IC50 is 3.72 ± 0.2 µM.

Question: What about the IC50 (MAO-B) of the same substance?
Answer: Its IC50 is 102 ± 5 µM.
